Here are results for 4 molecules from PMC2363969, “gp100/pmel17 and tyrosinase encode multiple epitopes recognized by Th1-type CD4+T cells” (British Journal of Cancer, 2001).

As usually defined, the IC50 is the concentration at which inhibition is half-maximal. Low readings indicate inhibition by little substance, high ones a need for much substance.

Assay [1] concerns the target HLA-DRB1*0401 (Homo sapiens, UniProt P01903+P01911, A100K/A169T/F76Y/I96L/K127E/L162R/M171V/N62H/P40V/Q125Y/R42H/S133A/S149N/S66Y/V115G/V209L/W38E). Nature of the assay: solid-state competitive-binding assay, purified HLA-DR4.
The target in assay [2] is HLA-DRB1*0404 (Homo sapiens, UniProt P01903+P01911, A100R/A169T/F76Y/I96L/K127E/L162R/M171V/N62H/P40V/Q125Y/R42H/S133A/S149N/S66Y/V209L/W38E). The assay is described as above.

As for `CSCC[C@H](NC(=O)[C@H](CCC(=O)O)NC(=O)[C@H](C)NC(=O)[C@H](CC(C)C)NC(=O)[C@@H](NC(=O)[C@@H](NC(=O)CNC(=O)[C@H](CCSC)NC(=O)[C@@H](NC(=O)[C@H](CCC(=O)O)NC(=O)[C@H](CO)NC(=O)[C@@H](NC(=O)[C@@H]1CCCN1C(=O)[C@@H](NC(=O)[C@H](CCCCN)NC(=O)[C@@H](N)CCC(=O)O)C(C)C)C(C)C)C(C)C)[C@@H](C)O)[C@@H](C)O)C(=O)N[C@@H](CO)C(=O)N[C@H](C(=O)N1CCC[C@H]1C(=O)N[C@@H](CCC(=O)O)C(=O)N[C@@H](C)C(=O)N[C@H](C(=O)O)[C@@H](C)O)[C@@H](C)O` [gp100/pmel17377-398], the IC50 in assay [1] is 7010 nM.
Take `CC[C@H](C)[C@H](NC(=O)[C@H](CO)NC(=O)[C@@H](NC(=O)[C@H](CCC(=O)O)NC(=O)[C@H](C)NC(=O)[C@@H]1CCCN1C(=O)[C@@H](NC(=O)[C@@H](N)CCSC)[C@@H](C)O)C(C)C)C(=O)N[C@H](C(=O)N[C@H](C(=O)N[C@@H](CC(C)C)C(=O)N[C@@H](CO)C(=O)NCC(=O)N[C@H](C(=O)N[C@H](C(=O)N[C@@H](C)C(=O)N[C@@H](C)C(=O)N[C@@H](CCC(N)=O)C(=O)N[C@H](C(=O)N[C@H](C(=O)N[C@H](C(=O)N[C@H](C(=O)O)[C@@H](C)O)[C@@H](C)O)[C@@H](C)O)C(C)C)[C@@H](C)O)[C@@H](C)O)C(C)C)C(C)C` [gp100/pmel17400-421]: in assay [2], the IC50 was 17 nM.
In assay [1], `CC[C@H](C)[C@H](N)C(=O)N[C@@H](Cc1ccc(O)cc1)C(=O)N[C@@H](CCCNC(=N)N)C(=O)N[C@@H](CCCNC(=N)N)C(=O)N[C@@H](CCCNC(=N)N)C(=O)N[C@@H](CC(C)C)C(=O)N[C@@H](CCSC)C(=O)N[C@@H](CCCCN)C(=O)N[C@@H](CCC(N)=O)C(=O)N[C@@H](CC(=O)O)C(=O)N[C@@H](Cc1ccccc1)C(=O)N[C@@H](CO)C(=O)N[C@H](C(=O)N1CCC[C@H]1C(=O)N[C@@H](CCC(N)=O)C(=O)N[C@@H](CC(C)C)C(=O)N1CCC[C@H]1C(=O)N[C@@H](Cc1c[nH]cn1)C(=O)N[C@@H](CO)C(=O)O)C(C)C` [gp100615-633 /pmel17622-640] gave an IC50 of 51 nM.
In assay [1], `CC[C@H](C)[C@H](NC(=O)[C@H](CC(N)=O)NC(=O)[C@@H](NC(=O)[C@H](CC(=O)O)NC(=O)[C@H](CC(N)=O)NC(=O)[C@H](Cc1ccccc1)NC(=O)[C@H](CCSC)NC(=O)[C@@H]1CCCN1C(=O)[C@@H](NC(=O)[C@H](CO)NC(=O)CNC(=O)[C@H](CC(N)=O)NC(=O)[C@H](CCCCN)NC(=O)[C@H](CCSC)NC(=O)[C@H](CCC(N)=O)NC(=O)CNC(=O)[C@@H](N)Cc1ccc(O)cc1)[C@@H](C)O)[C@@H](C)CC)C(=O)N[C@@H](Cc1ccc(O)cc1)C(=O)N[C@@H](CC(=O)O)C(=O)N[C@@H](CC(C)C)C(=O)O` [tyrosinase156-175] returned an IC50 of 1390 nM.
